Laboratory results taken from ChEMBL document CHEMBL5252638, “Novel triphenylphosphonium amphiphilic conjugates of glycerolipid type: synthesis, cytotoxic and antibacterial activity, and targeted cancer cell delivery” (RSC Med Chem, 2023).

Key:
Homo sapiens [1] = organism: Homo sapiens; assay: Selectivity index, ratio of IC50 for human Chang liver cells to IC50 for human SK-OV-3 cells
Homo sapiens [2] = organism: Homo sapiens; assay: Selectivity index, ratio of IC50 for human Chang liver cells to IC50 for human PC-3 cells

Structure (SMILES): O=c1[nH]cc(F)c(=O)[nH]1 [FLUOROURACIL]
- Ratio IC50 (Homo sapiens [1]): 1.3
- Ratio IC50 (Homo sapiens [2]): 1.9
